According to patent US5994563A, “Arylmethylphosphonic acid derivatives useful in treating bone wasting diseases” (Ortho Pharmaceutical Corporation, priority 1999, dated 1999):
Only a part of the results on these compounds is given; other tests are left out.

Test system: human osteoblastic (TE85) tyrosinephosphate phosphatase
Experiment: Tyrosylphosphate Phosphatase Enzyme Inhibition Assay (TE85)
Format: biochemical
Conditions: read-out: TF85 IC50; enzyme from TE85 cell extract, 32P peptide substrate 0.1 uM, 15 minutes at 37° C.

[4-(4-Cyanophenoxy)-5-nitro]phenylhydroxy methylphosphonic acid
IC50: 14 µM
